Numbering of substitutions follows the chain as printed.
How the values were obtained:
Assay type in all cases: biochemical
Details in all cases: control compound; substrate Nucleosomes 0.05 mg/mL
NSD2 = target: T1, NSD2 (Homo sapiens, UniProt O96028); assay: Methyltransferase inhibition panel: NSD2
T1 sequence (O96028 1-1365): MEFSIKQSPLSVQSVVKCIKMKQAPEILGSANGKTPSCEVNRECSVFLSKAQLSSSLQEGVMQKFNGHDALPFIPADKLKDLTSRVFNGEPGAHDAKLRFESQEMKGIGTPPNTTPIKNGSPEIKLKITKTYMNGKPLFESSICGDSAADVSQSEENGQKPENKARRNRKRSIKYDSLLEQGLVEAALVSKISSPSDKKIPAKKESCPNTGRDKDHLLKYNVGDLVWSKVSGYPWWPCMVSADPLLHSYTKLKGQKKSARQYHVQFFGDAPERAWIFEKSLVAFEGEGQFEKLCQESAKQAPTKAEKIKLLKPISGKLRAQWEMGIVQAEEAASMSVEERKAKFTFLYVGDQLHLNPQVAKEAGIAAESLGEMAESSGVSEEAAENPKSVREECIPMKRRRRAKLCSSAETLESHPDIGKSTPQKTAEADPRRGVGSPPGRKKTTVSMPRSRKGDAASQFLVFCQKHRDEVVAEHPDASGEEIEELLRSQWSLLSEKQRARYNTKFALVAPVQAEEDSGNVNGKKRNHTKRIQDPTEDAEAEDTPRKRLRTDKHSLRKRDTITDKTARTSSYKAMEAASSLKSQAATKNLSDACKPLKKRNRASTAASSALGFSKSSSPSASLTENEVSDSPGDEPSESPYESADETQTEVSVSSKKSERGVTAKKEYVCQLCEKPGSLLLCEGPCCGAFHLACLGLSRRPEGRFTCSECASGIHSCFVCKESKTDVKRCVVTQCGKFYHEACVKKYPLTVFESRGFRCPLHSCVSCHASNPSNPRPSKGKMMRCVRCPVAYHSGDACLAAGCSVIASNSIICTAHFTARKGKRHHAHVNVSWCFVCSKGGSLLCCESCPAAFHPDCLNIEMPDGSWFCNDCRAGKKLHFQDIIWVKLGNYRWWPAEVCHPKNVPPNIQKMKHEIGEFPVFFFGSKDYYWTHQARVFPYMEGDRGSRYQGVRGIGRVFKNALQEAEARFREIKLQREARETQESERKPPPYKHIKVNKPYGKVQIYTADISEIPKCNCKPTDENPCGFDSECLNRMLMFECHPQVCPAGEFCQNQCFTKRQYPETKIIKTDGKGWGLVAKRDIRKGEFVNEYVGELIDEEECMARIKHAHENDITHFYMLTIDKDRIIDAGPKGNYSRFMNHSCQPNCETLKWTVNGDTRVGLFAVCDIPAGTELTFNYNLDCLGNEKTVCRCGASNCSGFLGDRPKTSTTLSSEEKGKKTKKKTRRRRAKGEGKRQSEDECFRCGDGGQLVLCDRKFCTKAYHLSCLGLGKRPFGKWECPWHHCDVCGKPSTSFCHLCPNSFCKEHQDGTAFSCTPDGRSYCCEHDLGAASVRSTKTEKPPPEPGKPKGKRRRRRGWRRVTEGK
Experimental: (§1) The ability of ETP69 to inhibit methyltransferases was tested.

NSD2 (E1099K) = target: T2, NSD2 (E1099K) (Homo sapiens, UniProt O96028, E1099K); assay: Methyltransferase inhibition panel: NSD2 (E1099K)
T2 sequence (O96028 1-1365 E1099K): T1 sequence (O96028 1-1365) with E1099K
Experimental: as §1

NSD2 (T1150A) = target: T3, NSD2 (T1150A) (Homo sapiens, UniProt O96028, T1150A); assay: Methyltransferase inhibition panel: NSD2 (T1150A)
T3 sequence (O96028 1-1365 T1150A): T1 sequence (O96028 1-1365) with T1150A
Experimental: as §1

## Nc1ncnc2c1ncn2[C@@H]1O[C@H](CSCC[C@H](N)C(=O)O)[C@@H](O)[C@H]1O [SAH, reference compound]
NSD2
  IC50: 3360 nM
NSD2 (E1099K)
  IC50: 1580 nM
NSD2 (T1150A)
  IC50: 472 nM

From patent publication US20260207585A1, “METHODS AND COMPOSITIONS FOR THE TREATMENT OF PARKINSON'S DISEASE, HUNTINGTON'S DISEASE, AMYOTROPHIC LATERAL SCLEROSIS, AND LEARNING DISORDERS” (Cedars-Sinai Medical Center, priority 2022, published 2026)
